Reference: US8633212B2

Molecular target: ectodomain of BACE (aa 1-454) fused to a myc-his tag, secreted from HEK293/BACEect. cells (Homo sapiens (Human), UniProt P56817)
Test: BACE assay (FRET fluorescence quenching, Example 435; assay format A or B)
Settings: footnote b: protocols described in Example 435

CC(C)N1C(=O)C2(N=C1N)c1cc(OCC3CC3)ccc1CC21CCc2ccccc2CC1 (stereo not shown)
IC50: 79.3 nM
